Data: patent US20230055321A1, “PYRIMIDOPYRROLE SPIRO COMPOUNDS AND DERIVATIVES THEREOF AS DNA-PK INHIBITORS” (MEDSHINE DISCOVERY INC., priority 2019, published 2023)

Protein sequences, listed by entry. Tags and fused reporters are not part of them.
UniProt P78527, whole entry: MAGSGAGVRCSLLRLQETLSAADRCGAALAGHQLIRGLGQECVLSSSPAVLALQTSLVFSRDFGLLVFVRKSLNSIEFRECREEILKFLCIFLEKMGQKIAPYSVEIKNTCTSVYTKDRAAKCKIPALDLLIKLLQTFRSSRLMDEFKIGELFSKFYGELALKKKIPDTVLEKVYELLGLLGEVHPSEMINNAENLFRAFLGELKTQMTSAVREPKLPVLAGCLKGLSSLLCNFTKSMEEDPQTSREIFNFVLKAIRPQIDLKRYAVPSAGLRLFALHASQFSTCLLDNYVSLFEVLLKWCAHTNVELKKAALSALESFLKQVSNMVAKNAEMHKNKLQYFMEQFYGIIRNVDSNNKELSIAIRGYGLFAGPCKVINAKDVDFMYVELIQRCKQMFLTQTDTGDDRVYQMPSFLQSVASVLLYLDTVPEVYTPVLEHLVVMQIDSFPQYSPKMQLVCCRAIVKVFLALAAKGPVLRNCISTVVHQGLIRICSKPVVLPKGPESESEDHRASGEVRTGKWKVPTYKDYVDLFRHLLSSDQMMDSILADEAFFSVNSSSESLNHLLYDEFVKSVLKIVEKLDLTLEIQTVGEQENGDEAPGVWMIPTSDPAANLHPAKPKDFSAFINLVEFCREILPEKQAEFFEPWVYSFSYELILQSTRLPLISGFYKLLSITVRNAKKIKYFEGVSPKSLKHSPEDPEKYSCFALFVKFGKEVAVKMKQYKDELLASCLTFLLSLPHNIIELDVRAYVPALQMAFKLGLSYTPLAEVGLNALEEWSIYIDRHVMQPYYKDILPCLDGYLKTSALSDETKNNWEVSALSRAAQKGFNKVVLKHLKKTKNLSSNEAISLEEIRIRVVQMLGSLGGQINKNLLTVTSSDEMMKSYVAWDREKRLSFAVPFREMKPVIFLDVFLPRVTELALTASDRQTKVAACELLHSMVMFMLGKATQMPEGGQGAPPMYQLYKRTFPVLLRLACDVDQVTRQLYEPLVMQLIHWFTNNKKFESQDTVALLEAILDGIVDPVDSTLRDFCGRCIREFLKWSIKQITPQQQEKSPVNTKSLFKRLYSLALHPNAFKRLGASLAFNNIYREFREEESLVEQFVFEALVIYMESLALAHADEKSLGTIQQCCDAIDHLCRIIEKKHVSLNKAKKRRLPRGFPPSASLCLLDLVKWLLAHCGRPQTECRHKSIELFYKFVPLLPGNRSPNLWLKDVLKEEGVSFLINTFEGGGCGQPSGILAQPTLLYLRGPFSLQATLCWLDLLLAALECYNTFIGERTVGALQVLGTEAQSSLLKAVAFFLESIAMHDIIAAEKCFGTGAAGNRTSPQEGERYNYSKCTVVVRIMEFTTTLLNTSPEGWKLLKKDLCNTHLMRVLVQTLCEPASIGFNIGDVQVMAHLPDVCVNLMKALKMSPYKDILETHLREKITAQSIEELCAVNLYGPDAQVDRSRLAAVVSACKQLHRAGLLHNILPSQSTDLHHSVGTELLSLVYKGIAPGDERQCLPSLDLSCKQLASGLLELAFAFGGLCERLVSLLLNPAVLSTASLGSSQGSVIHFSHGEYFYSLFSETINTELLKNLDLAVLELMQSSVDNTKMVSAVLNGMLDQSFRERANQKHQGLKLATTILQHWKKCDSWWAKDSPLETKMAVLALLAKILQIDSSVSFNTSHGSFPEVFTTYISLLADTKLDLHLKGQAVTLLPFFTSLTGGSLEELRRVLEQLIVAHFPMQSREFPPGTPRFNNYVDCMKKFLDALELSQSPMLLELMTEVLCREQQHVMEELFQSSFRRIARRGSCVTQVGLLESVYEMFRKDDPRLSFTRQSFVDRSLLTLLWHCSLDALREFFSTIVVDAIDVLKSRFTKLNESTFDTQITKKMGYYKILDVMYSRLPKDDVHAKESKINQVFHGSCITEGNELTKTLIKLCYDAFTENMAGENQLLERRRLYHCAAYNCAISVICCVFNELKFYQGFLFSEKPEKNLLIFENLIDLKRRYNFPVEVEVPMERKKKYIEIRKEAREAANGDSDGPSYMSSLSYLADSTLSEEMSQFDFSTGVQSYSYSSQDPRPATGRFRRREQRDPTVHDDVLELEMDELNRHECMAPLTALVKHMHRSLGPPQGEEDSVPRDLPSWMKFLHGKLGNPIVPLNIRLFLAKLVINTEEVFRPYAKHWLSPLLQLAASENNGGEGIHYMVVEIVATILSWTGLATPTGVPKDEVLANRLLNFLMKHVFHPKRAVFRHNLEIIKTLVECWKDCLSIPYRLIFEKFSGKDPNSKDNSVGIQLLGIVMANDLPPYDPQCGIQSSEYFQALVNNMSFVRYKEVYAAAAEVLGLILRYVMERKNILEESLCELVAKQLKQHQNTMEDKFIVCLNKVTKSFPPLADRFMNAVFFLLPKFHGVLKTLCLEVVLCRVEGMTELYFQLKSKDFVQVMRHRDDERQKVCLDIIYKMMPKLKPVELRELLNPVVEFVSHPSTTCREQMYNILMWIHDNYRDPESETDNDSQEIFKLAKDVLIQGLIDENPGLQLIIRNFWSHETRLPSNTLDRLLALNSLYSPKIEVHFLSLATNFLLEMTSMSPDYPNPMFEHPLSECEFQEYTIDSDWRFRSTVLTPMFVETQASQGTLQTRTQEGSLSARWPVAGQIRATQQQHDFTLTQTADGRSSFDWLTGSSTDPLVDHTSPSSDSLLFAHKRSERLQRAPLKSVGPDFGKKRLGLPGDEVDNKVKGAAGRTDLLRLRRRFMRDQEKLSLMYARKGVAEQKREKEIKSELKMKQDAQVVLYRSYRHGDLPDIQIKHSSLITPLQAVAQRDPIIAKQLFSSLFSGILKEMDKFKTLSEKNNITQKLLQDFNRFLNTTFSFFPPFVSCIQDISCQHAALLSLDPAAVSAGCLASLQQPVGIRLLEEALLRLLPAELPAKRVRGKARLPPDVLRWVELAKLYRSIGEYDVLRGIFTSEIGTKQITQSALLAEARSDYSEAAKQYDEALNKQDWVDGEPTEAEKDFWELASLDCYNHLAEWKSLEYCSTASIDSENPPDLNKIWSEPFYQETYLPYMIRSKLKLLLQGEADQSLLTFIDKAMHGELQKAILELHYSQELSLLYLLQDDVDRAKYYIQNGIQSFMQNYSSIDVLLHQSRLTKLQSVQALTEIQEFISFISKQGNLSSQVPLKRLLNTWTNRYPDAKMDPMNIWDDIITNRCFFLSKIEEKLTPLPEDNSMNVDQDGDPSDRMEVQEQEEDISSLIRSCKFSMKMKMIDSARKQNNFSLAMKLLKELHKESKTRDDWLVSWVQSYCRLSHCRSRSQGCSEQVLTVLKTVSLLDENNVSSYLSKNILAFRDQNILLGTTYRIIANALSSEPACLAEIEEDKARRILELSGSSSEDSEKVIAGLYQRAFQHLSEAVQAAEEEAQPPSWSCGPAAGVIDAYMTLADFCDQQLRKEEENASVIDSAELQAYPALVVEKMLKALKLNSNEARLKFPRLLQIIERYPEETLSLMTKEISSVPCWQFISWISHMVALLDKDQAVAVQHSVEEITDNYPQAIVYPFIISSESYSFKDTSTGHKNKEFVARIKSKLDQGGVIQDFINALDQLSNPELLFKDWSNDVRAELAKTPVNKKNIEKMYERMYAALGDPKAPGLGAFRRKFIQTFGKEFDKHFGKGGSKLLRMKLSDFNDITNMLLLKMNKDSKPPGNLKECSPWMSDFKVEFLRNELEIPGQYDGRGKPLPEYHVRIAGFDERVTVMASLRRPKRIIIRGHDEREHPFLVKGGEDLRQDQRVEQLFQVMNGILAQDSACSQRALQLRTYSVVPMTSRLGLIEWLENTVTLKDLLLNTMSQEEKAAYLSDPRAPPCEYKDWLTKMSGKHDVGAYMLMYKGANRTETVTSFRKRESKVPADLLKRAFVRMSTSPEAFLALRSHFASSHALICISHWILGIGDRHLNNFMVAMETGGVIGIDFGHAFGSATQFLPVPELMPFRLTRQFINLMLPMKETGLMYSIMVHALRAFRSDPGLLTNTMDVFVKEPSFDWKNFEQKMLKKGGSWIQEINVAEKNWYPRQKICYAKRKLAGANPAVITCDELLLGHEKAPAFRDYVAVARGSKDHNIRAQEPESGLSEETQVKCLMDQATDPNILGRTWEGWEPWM
UniProt P12956, whole entry partner: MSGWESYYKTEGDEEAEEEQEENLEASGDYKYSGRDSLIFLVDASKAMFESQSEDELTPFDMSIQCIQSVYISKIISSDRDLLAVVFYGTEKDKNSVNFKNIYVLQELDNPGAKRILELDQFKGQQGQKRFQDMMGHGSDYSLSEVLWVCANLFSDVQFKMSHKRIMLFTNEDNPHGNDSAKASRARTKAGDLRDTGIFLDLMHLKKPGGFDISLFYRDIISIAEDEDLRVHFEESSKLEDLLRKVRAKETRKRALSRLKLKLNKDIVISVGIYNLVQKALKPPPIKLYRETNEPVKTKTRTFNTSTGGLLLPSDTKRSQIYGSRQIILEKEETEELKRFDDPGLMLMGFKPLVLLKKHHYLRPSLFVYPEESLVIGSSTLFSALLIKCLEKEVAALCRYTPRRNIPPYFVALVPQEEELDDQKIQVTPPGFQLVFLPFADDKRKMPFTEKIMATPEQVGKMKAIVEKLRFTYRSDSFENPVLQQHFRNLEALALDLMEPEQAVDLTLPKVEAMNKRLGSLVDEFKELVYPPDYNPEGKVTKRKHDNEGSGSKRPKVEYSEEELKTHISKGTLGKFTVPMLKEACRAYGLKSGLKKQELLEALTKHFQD
UniProt P13010, whole entry partner: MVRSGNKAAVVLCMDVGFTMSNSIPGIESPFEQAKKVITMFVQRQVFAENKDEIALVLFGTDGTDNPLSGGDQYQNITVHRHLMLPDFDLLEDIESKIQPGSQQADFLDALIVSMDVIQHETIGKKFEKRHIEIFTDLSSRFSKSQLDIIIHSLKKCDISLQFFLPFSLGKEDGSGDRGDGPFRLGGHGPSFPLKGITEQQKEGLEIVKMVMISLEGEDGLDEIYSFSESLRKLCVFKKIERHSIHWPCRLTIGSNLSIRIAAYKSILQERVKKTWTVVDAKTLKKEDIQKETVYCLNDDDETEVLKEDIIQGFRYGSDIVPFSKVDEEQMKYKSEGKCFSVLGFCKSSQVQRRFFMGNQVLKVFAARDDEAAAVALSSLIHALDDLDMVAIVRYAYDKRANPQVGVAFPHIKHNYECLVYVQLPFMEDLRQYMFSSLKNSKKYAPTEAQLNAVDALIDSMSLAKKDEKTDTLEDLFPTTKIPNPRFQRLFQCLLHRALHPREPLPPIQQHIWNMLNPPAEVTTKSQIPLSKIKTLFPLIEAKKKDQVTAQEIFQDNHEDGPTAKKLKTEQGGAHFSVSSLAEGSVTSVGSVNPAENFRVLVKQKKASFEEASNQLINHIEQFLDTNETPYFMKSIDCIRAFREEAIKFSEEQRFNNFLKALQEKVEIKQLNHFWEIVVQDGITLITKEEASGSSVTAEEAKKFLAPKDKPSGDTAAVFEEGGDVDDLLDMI

Target: Human-derived DNA-PK (Homo sapiens, UniProt P78527)
Test: DNA-dependent protein kinase (DNA-PK) inhibitory activity screening experiment (Eurofins, HTRF)
Type: biochemical
Details: read-out: DNA-PK kinase inhibitory activity IC50; ATP: 10 μM; 50 nM GST-cMyc-p53; 30 minutes at room temperature

SMILES | IC50 [nM]
Cc1cc2ncnn2cc1Nc1ncc2c(n1)C1(CCC3(CCO3)CC1)C(=O)N2C (single isomer, unassigned) [Compound 25] | 6
Cc1cc2ncnn2cc1Nc1ncc2c(n1)C1(CCC3(CCO3)CC1)C(=O)N2C (single isomer, unassigned) [Compound 26] | 3
